Measured values reported in patent US11236106B2, “Cycloalkane-1,3-diamine derivative” (Daiichi Sankyo Company, Limited, priority 2018, dated 2022).

How the values were obtained:
[1] = system: MOLM-13 cells; conditions: read-out: GI50, cell growth inhibitory activity, MOLM-13, day 7, cultured 7 days, assigned by order and values, Hydrochloride
[2] = system: MV-4-11 cells; conditions: Exp. Ex. 3-3, oral; for Estimated tumor volume (test end date) Mean ± S.E.: 31 days after transplantation
[3] = system: K562 cells; assay: cells; conditions: Homo sapiens
[4] = system: MV-4-11 cells; assay: cells; conditions: Homo sapiens
[5] = system: MOLM-13 cells; assay: cells; conditions: Homo sapiens
[6] = system: OCI-AML3 cells; assay: cells; conditions: Homo sapiens, OCI-AML-3, 168 h, read-out: GI50 (nM) Day 7
[7] = system: MV-4-11 cells; assay: Antitumor activity in MV-4-11 cell subcutaneous transplant model (Experimental Example 3-2); format: in vivo, mice; conditions: Exp. Ex. 3-2, oral; for Estimated tumor volume (test end date) Mean ± S.E.: 34 days after transplantation
Experimental: (§1) MV-4-11 cells were purchased from ATCC. The female FOX CHASE SCID C.B.17/Icr-scid/scidJcl mice were purchased from Claire Japan. […] The compound was administered as a suspension in 0.5% MC. For the compound-free group, 0.5% MC was administered as a solvent. The estimated individual tumor volume was measured from the day of the grouping to 34 days after the transplantation (test end date).
(§2) Tumor growth inhibitory rate %=(1−TVCt/TVCc)×100 TVC=(Individual tumor volume on the test end date)−(Individual tumor volume on the grouping date) TVCt: TVC mean value of the compound administration group TVCc: TVC mean value of the compound-free group

[8] = system: MV-4-11 cells; assay: Antitumor activity in MV-4-11 cell subcutaneous transplant model (Experimental Example 3-4); format: in vivo, mice; conditions: Exp. Ex. 3-4, oral
Experimental: as §1, with “32” for “34”
as §2

[9] = K562, 72 h, read-out: GI50 (μM) Day3 K562
[10] = K562, 168 h, read-out: GI50 (μM) Day7 K562
[11] = MV4-11, 72 h, read-out: GI50 (μM) Day3 MV4;11, MV4;11, Day3
[12] = MV4-11, 168 h, read-out: GI50 (μM) Day7 MV4;11, MV4;11, Day7
[13] = MOLM-13, 72 h, read-out: GI50 (μM) Day3 MOLM-13, MOLM-13, Day3
[14] = MOLM-13, 168 h, read-out: GI50 (μM) Day7 MOLM-13, MOLM-13, Day7
[15] = K562, 72 h, read-out: GI50, cell growth inhibitory activity, K562, day 3
[16] = K562, 168 h, read-out: GI50, cell growth inhibitory activity, K562, day 7
[17] = MV4-11, 72 h, read-out: GI50, cell growth inhibitory activity, MV-4-11, day 3, MV-4-11 cells, cultured 3 days, assigned by order and values
[18] = MV4-11, 168 h, read-out: GI50, cell growth inhibitory activity, MV-4-11, day 7, MV-4-11 cells, cultured 7 days, assigned by order and values
[19] = MOLM-13, 72 h, read-out: GI50, cell growth inhibitory activity, MOLM-13, day 3, MOLM-13 cells, cultured 3 days, assigned by order and values
[20] = MOLM-13, 168 h, read-out: GI50, cell growth inhibitory activity, MOLM-13, day 7, MOLM-13 cells, cultured 7 days, assigned by order and values

| SMILES | GI50 [3, 9] [µM] | GI50 [3, 10] [µM] | GI50 [4, 11] [µM] | GI50 [4, 12] [µM] | GI50 [5, 13] [µM] | GI50 [5, 14] [µM] | GI50 [6] [nM] | GI50 [3, 15] [µM] | GI50 [3, 16] [µM] | GI50 [4, 17] [µM] | GI50 [4, 18] [µM] | GI50 [5, 19] [µM] | GI50 [5, 20] [µM] | also measured |
| --- | --- | --- | --- | --- | --- | --- | --- | --- | --- | --- | --- | --- | --- | --- |
| COc1nc(N(C)C2CC(NCC3CCC(c4cc(OC)c(OC)nn4)CC3)CC2O)c2cc(CC(F)(F)F)sc2n1 (single isomer, unassigned) [Example 128A, Hydrochloride] |  |  |  |  |  |  |  |  |  |  |  |  |  | GI50 [1]: 1450 nM |
| COc1cc(-c2ccc(CN[C@H]3C[C@@H](O)[C@@H](N(C)c4ncnc5sc(CC(F)(F)F)cc45)C3)cc2)cnc1C#N [Example 22, 5-[4-({[(1R,3R,4S)-3-hydroxy-4-{methyl[6-(2,2,2-trifluoroethyl)thieno[2,3-d]pyrimidin-4-yl]amino}cyclopentyl]amino}methyl)phenyl]-3-methoxypyridine-2-carbonitrile Hydrochloride] | 1.37 | 0.925 | 0.189 | 0.0971 | 0.675 | 0.262 | 217 |  |  |  |  |  |  | Tumor growth inhibitory rate (%) ([2]; qdx17, 25 mg/kg/day): 27%; Estimated tumor volume (test end date) Mean ± S.E. ([2]; qdx17, 25 mg/kg/day): 712 ± 82; Tumor growth inhibitory rate (%) ([2]; qdx17, 50 mg/kg/day): 99%; Estimated tumor volume (test end date) Mean ± S.E. ([2]; qdx17, 50 mg/kg/day): 9 ± 4; Tumor growth inhibitory rate (%) ([2]; qdx17, 100 mg/kg/day): 100%; Estimated tumor volume (test end date) Mean ± S.E. ([2]; qdx17, 100 mg/kg/day): 0 ± 0 |
| CN(c1ncnc2sc(CC(F)(F)F)cc12)[C@H]1C[C@@H](NCc2ccc(-c3cccc4c3cnn4S(C)(=O)=O)cc2)C[C@H]1O [Example 23, (1R,2S,4R)-4-[({4-[1-(methanesulfonyl)-1H-indazol-4-yl]phenyl}methyl)amino]-2-{methyl[6-(2,2,2-trifluoroethyl)thieno[2,3-d]pyrimidin-4-yl]amino}cyclopentan-1-ol Hydrochloride] | 1.55 | 0.586 | 0.106 | 0.0584 | 0.594 | 0.155 |  |  |  |  |  |  |  | Tumor growth inhibitory rate (%) ([2]; qdx17, 25 mg/kg/day): 37%; Tumor growth inhibitory rate (%) ([2]; qdx17, 50 mg/kg/day): 97%; Tumor growth inhibitory rate (%) ([2]; qdx17, 100 mg/kg/day): 100% |
| COc1cc(-c2ccc(CN[C@H]3C[C@@H](O)[C@@H](N(C)c4ncnc5sc(CC(F)(F)F)cc45)C3)cc2)nnc1OC [Example 25, (1R,2S,4R)-4-({[4-(5,6-dimethoxypyridazin-3-yl)phenyl]methyl}amino)-2-{methyl[6-(2,2,2-trifluoroethyl)thieno[2,3-d]pyrimidin-4-yl]amino}cyclopentan-1-ol Hydrochloride] | > 5 | 3.47 | 0.0253 | 0.018 | 0.224 | 0.04 | 39 |  |  |  |  |  |  | Tumor growth inhibitory rate (%) ([7]; qdx18, 12.5 mg/kg/day): 33.0%; Tumor growth inhibitory rate (%) ([7]; qdx18, 25 mg/kg/day): 81.9%; Tumor growth inhibitory rate (%) ([7]; qdx18, 50 mg/kg/day): 100%; Tumor growth inhibitory rate (%) ([7]; qdx18, 100 mg/kg/day): 100% |
| COc1nc(N(C)[C@H]2C[C@@H](NCc3ccc(-c4cc(OC)c(OC)nn4)cc3)C[C@H]2O)c2cc(CC(F)(F)F)sc2n1 [Example 27, (1R,2S,4R)-4-({[4-(5,6-dimethoxypyridazin-3-yl)phenyl]methyl}amino)-2-{[2-methoxy-6-(2,2,2-trifluoroethyl)thieno[2,3-d]pyrimidin-4-yl](methyl)amino}cyclopentan-1-ol Hydrochloride] | 3.37 | 2.1 | 0.0152 | 0.0123 |  |  | 24 |  |  |  |  |  |  | Tumor growth inhibitory rate (%) ([7]; qdx18, 25 mg/kg/day): 75.8%; Estimated tumor volume (test end date) Mean ± S.E. ([7]; qdx18, 25 mg/kg/day): 335 ± 42; Tumor growth inhibitory rate (%) ([7]; qdx18, 50 mg/kg/day): 97.8%; Estimated tumor volume (test end date) Mean ± S.E. ([7]; qdx18, 50 mg/kg/day): 30 ± 8; Tumor growth inhibitory rate (%) ([7]; qdx18, 100 mg/kg/day): 100%; Estimated tumor volume (test end date) Mean ± S.E. ([7]; qdx18, 100 mg/kg/day): 0 ± 0 |
| COc1cc(-c2ccc(CN[C@H]3C[C@@H](O)[C@@H](N(C)c4ncnc5sc(CC(F)(F)F)cc45)C3)cc2)cnc1C.Cl [Example 60, (1R,2S,4R)-4-({[4-(5-methoxy-6-methylpyridin-3-yl)phenyl]methyl}amino)-2-{methyl[6-(2,2,2-trifluoroethyl)thieno[2,3-d]pyrimidin-4-yl]amino}cyclopentan-1-ol hydrochloride] | 3.4 | 2.39 | 0.0776 | 0.0325 | 0.614 | 0.0807 |  |  |  |  |  |  |  | Tumor growth inhibitory rate (%) ([8]; qdx16, 25 mg/kg/day): 43%; Tumor growth inhibitory rate (%) ([8]; qdx16, 50 mg/kg/day): 97%; Tumor growth inhibitory rate (%) ([8]; qdx16, 100 mg/kg/day): 100% |
| COc1cc(-c2ccc(CN[C@H]3C[C@@H](O)[C@@H](N(C)c4ncnc5sc(CC(F)(F)F)cc45)C3)cc2)cnc1OC.Cl [Example 67, (1R,2S,4R)-4-({[4-(5,6-dimethoxypyridin-3-yl)phenyl]methyl}amino)-2-{methyl[6-(2,2,2-trifluoroethyl)thieno[2,3-d]pyrimidin-4-yl]amino}cyclopentan-1-ol hydrochloride] |  |  |  |  |  |  |  | 4 | 2.36 | 0.0676 | 0.044 | 1.42 | 0.13 | Tumor growth inhibitory rate (%) ([8]; qdx16, 25 mg/kg/day): 9%; Tumor growth inhibitory rate (%) ([8]; qdx16, 50 mg/kg/day): 61%; Tumor growth inhibitory rate (%) ([8]; qdx16, 100 mg/kg/day): 100% |
| COc1cc(-c2ccc(CN[C@H]3C[C@@H](O)[C@@H](N(C)c4ncnc5sc(CC(F)(F)F)cc45)C3)cc2)cnc1F.Cl [Example 68, (1R,2S,4R)-4-({[4-(6-fluoro-5-methoxypyridin-3-yl)phenyl]methyl}amino)-2-{methyl[6-(2,2,2-trifluoroethyl)thieno[2,3-d]pyrimidin-4-yl]amino}cyclopentan-1-ol hydrochloride] |  |  |  |  |  |  |  | 4.93 | 2.85 | 0.0462 | 0.0207 | 1.93 | 0.0882 | Tumor growth inhibitory rate (%) ([2]; qdx17, 25 mg/kg/day): 0%; Tumor growth inhibitory rate (%) ([2]; qdx17, 50 mg/kg/day): 42%; Tumor growth inhibitory rate (%) ([2]; qdx17, 100 mg/kg/day): 97% |
| COc1nc(N(C)[C@H]2C[C@@H](NCc3ccc(-c4cc(OC)c(OC)cn4)cc3)C[C@H]2O)c2cc(CC(F)(F)F)sc2n1 [Example 116, (1R,2S,4R)-4-({[4-(4,5-dimethoxypyridin-2-yl)phenyl]methyl}amino)-2-{[2-methoxy-6-(2,2,2-trifluoroethyl)thieno[2,3-d]pyrimidin-4yl](methyl)amino}cyclopentan-1-ol hydrochloride] |  |  |  |  |  |  | 46 |  | 1 |  | 0.0133 |  | 0.0592 |  |
| COc1cncc(-c2ccc(CN[C@H]3C[C@@H](O)[C@@H](N(C)c4ncnc5sc(CC(F)(F)F)cc45)C3)cc2)c1 [Example 129, (1R,2S,4R)-4-({[4-(5-methoxypyridin-3-yl)phenyl]methyl}amino)-2-{methyl[6-(2,2,2-trifluoroethyl)thieno[2,3-d]pyrimidin-4-yl]amino}cyclopentan-1-ol Hydrochloride] |  |  |  |  |  |  |  | 5.21 | 2.74 | 0.0968 | 0.0378 | 1.25 | 0.104 |  |
| COc1ncc(-c2ccc(CN[C@H]3CC[C@@H](N(C)c4ncnc5sc(CC(F)(F)F)cc45)C3)cc2)s1 [Example 130, (1R,3S)—N^3-{[4-(2-methoxy-1,3-thiazol-5-yl)phenyl]methyl}-N^1-methyl-N^1-[6-(2,2,2-trifluoroethyl)thieno[2,3-d]pyrimidin-4-yl]cyclopentane-1,3-diamine Hydrochloride] |  |  |  |  |  |  |  | 1.9 |  | 0.241 |  | 0.894 |  |  |

Where a name gives a salt, the structure may show the parent alone. Read-outs that look alike come from different tables or passages of the source.
